{"sequences": {"note": "Protein sequences, listed by entry. Tags and fused reporters are not part of them. Lines headed by an entry give the natural chain unless they say otherwise; changes in a name come on top.", "UniProt Q9H244": "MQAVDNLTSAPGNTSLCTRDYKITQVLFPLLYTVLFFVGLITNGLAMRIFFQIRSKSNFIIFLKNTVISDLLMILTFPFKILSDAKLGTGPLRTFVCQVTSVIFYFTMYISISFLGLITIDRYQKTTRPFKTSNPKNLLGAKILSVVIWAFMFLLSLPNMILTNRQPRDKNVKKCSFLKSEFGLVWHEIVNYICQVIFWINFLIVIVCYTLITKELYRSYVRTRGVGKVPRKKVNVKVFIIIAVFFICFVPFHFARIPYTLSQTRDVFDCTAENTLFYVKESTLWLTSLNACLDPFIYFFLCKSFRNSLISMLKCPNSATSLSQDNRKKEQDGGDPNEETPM"}, "source": "paper PMC12362594", "about": "“Design, Synthesis and Preclinical Evaluation of a Brain-Permeable PET Tracer for P2Y12 Receptor Imaging in the Brain” (Journal of Medicinal Chemistry, 2025)", "target": "P2Y12R (Homo sapiens, UniProt Q9H244)", "test": "cell-based", "details": "IC50, [33P]2-MeSADP competitor; triplicates, mean; footnote b values: three independent experiments, mean ± SD", "procedure": "The cell cultures were maintained in an incubator at 37 °C under a humidified and 5% CO2-conditioned atmosphere. Cells were passaged at 80% confluency. For binding assays, cells were harvested with Trypsin-EDTA (5 mL, Gibco) and resuspended in medium. The suspension was centrifuged at 1000g for 5 min and the supernatant was discarded. The cells were adjusted to assay cell concentration (2 × 10^6 cells/mL) by the addition of D-PBS and stored at 37 °C up to 1 h prior to the binding assay.\nThe mixture was transferred to a 96-well filter plate (1.0 μm glass fiber filter, MultiScreenHTS FB Filter Plate, Merck Millipore, Billercia, MA) and filtered with a vacuum manifold (MultiScreenHTS Vacuum Manifold, Merck Millipore, Billercia, MA). The filters were washed by the addition of cold PBS buffer (4 × 200 μL) and dried at rt for 1 h. Afterward, a punch-tip plate was mounted and the filters were separated into scintillation vials (10 mL) containing scintillation cocktail (4 mL, Rotiszint eco plus LSC-Universalcocktail). […] Bound activity was plotted as a function of ligand concentration in GraphPad Prism 8.0 (GraphPad Software, version 8.4.3., San Diego, CA).", "data": [{"smiles": "CCOC(=O)c1cc([11C]#N)c(N2CC(NC(=O)NS(=O)(=O)c3ccc(Cl)s3)C2)nc1C", "note": "[Compound 4, reference compound]", "values": [{"measurement": "IC50", "result": "51 ± 23", "unit": "nM"}]}]}
